Experimental data published in US20260048059A1, “USE OF SUBSTITUTED BENZOXAZOLE AND BENZOFURAN COMPOUNDS FOR THE TREATMENT AND PREVENTION OF DISEASES ASSOCIATED WITH CHRONIC FATIGUE, EXHAUSTION AND/OR EXERTIONAL INTOLERANC” (MITODICURE GMBH, priority 2022, published 2026).

Tested on: isolated rat soleus muscle
Experiment: Ex vivo isolated rat soleus muscle: residual contractile force in high KCl (12.5 mM) buffer
Details: for Activity on residual contractile force compared with dipyridamole: in presence of salbutamol, KCl 12.5 mM buffer; for Mean residual contractile force in % (SEM in %): 30 min in KCl 12.5 mM buffer

Row | SMILES | Activity on residual contractile force compared with dipyridamole | Mean residual contractile force in % (SEM in %) (test compound 16.8 nM in presence of salbutamol 1 μM) | Mean residual contractile force in % (SEM in %) (test compound 0.3 μM in presence of salbutamol 1 μM)
1 | CN(C)C(=O)CNCc1nc2cc(Cl)c3c(c2o1)C1(CCCCC1)NC(=O)N3 | more active than dipyridamole | 60.5 (3.0); n = 6; p < 0.01% | 
2 | CN(C)C1CCN(C(=O)c2cc3cc(Cl)c4c(c3o2)C2(CCCCC2)NC(=O)N4)CC1 | more active than dipyridamole |  | 73.7 (9.6); n = 4; p < 0.05%
